One assay has as its target F36I mutant FKBP (UniProt P62942). The experiment in a line: Competitive Binding FP Assay. The note with it: read-out: F36I IC50; Synthetic Monomers table; normalized to value of FK506 run in the same experiment. Set-up: species or system human.
Another assay concerns the target F36M mutant FKBP (UniProt P62942). Description: Competitive Binding FP Assay. Set-up: species or system human. Particulars: read-out: F36M IC50; Synthetic Monomers table; normalized to value of FK506 run in the same experiment.
A further assay has as its target mutant (F36V) FKBP (UniProt P62942). The experiment in a line: Competitive Binding FP Assay. Also on record: species or system human.
For a further assay, the target named is F36A mutant FKBP (UniProt P62942). Description: Competitive Binding FP Assay. Set-up: species or system human. The note with it: read-out: F36A IC50; Synthetic Monomers table; normalized to value of FK506 run in the same experiment.
In the next assay the target is wild-type human FKBP12 (Homo sapiens, UniProt P62942). Description: Competitive Binding FP Assay. Particulars: read-out: wild-type IC50; Synthetic Monomers table; normalized to value of FK506 run in the same experiment.
A further assay concerns the target F36S mutant FKBP (UniProt P62942). The experiment in a line: Competitive Binding FP Assay. The note with it: read-out: F36S IC50; Synthetic Monomers table; normalized to value of FK506 run in the same experiment.
A further assay deals with F36L mutant FKBP (Homo sapiens, UniProt P62942, F37L). The experiment in a line: Competitive Binding FP Assay.
Assay [1] concerns FKBP-containing fusion proteins (wt FKBP). The experiment in a line: Transcription Assay, activation of reporter gene transcription (wt; stable). It is filed as cell-based, human. The note with it: at 1000 nM; each value an individual experiment. Background: Reporter assays use an easily measured gene product as a stand-in for the process of interest.
Assay [2] deals with FAS-FKBP fusion (wt FKBP) in HT1080 cells. Description: Apoptosis Assay, Fas killing (wt, stable). The assay is classed as cell-based, human. Particulars: read-out: Fas killing (wt, stable) EC50; mean values.
The mark [3] stands for this setting: read-out: F36V IC50, Synthetic Monomers table, normalized to value of FK506 run in the same experiment.
The mark [4] stands for this setting: read-out: FKBPF36V binding affinity IC50, Synthetic Multimerizers table, monomer value in brackets, mean of duplicates, normalized to FK506 = […] (substituted phenyl/lower aliphatic series: to AP1903 values).
The mark [5] stands for this setting: read-out: F36L IC50, Synthetic Monomers table, normalized to value of FK506 run in the same experiment.

Chains of the proteins cited; added tags and fusions are not shown. Lines headed by an entry give the natural chain unless they say otherwise; changes in a name come on top. Residues count along the entry.
UniProt P62942, whole entry, looked up, stated change not applied: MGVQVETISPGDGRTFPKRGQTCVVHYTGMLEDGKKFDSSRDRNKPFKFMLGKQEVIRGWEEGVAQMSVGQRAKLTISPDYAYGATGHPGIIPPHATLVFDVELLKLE
UniProt P62942, 2-108 F37L limits assumed: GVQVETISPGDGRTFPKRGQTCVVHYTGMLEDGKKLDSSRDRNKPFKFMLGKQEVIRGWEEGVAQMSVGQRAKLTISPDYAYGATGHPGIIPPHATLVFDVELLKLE
UniProt P62942, 2-108 limits assumed: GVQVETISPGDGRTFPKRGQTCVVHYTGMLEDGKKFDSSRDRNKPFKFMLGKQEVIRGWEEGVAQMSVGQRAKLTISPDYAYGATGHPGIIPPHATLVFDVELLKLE

Read-outs that look alike come from different tables or passages of the source.

Consider `CCC(C)C(C(=O)N1CCCC[C@H]1C(=O)O[C@H](CCc1ccc(OC)c(OC)c1)c1cccc(OCC(=O)O)c1)c1ccccc1` (stereo partly drawn), for which the IC50 at F36I mutant FKBP was 8 nM; on F36M mutant FKBP, 16 nM; on mutant (F36V) FKBP (setting [3]), 13 nM; on mutant (F36V) FKBP (setting [4]), 6.9 nM; on F36A mutant FKBP, 21 nM; at wild-type human FKBP12, 9580 nM. In addition, the IC50 on F36S mutant FKBP came to 47 nM; on F36L mutant FKBP (setting [5]), 24 nM.
`COc1ccc(CC[C@@H](OC(=O)[C@@H]2CCCCN2C(=O)[C@H](c2cc(OC)c(OC)c(OC)c2)C(C)C)c2cccc(OCC(=O)NCCNC(=O)COc3cccc([C@@H](CCc4ccc(OC)c(OC)c4)OC(=O)[C@@H]4CCCCN4C(=O)[C@H](c4cc(OC)c(OC)c(OC)c4)C(C)C)c3)c2)cc1OC`: the “activation of transcription (wt; stable): % @ 1000” value in assay [1] is reported as 3% @ 1000. In addition, the IC50 at mutant (F36V) FKBP (setting [4]) was 7 nM; at F36L mutant FKBP (read-out: FKBPF36L binding affinity IC50), 9.6 nM. Also, in assay [2], the EC50 lay in the range of 200 to 300 nM.
For the compound `CCC(C(=O)N1CCCC[C@H]1C(=O)O[C@H](CCc1ccc(OC)c(OC)c1)c1cccc(OCC(=O)O)c1)c1cccs1` (stereo partly drawn), the IC50 is 135 nM at F36I mutant FKBP; 182 nM on F36M mutant FKBP; 62 nM on mutant (F36V) FKBP (setting [3]); 156 nM at F36A mutant FKBP; above 10000 nM at wild-type human FKBP12; 121 nM on F36L mutant FKBP (setting [5]).
On to `CCC(C(=O)N1CCCC[C@H]1C(=O)O[C@H](CCc1ccc(OC)c(OC)c1)c1cccc(OCC(=O)O)c1)c1ccccc1OC` (stereo partly drawn), for which the IC50 on F36I mutant FKBP was found to be 153 nM; on F36M mutant FKBP it was 425 nM; at mutant (F36V) FKBP (setting [3]) it was 93 nM; at F36A mutant FKBP, 586 nM; at wild-type human FKBP12 it was 45800 nM; on F36L mutant FKBP (setting [5]), 211 nM.
`CC[C@H](C(=O)N1CCCC[C@H]1C(=O)O[C@H](CCc1ccc(OC)c(OC)c1)c1cccc(OCC(=O)O)c1)c1ccc(Cl)cc1`: the IC50 at F36I mutant FKBP was 54 nM; at F36M mutant FKBP, 62 nM; at mutant (F36V) FKBP (setting [3]), 34 nM; at F36A mutant FKBP it was 81 nM; at wild-type human FKBP12 it was 17600 nM; at F36L mutant FKBP (setting [5]), 56 nM.
As to `COc1ccc(CC[C@@H](OC(=O)[C@@H]2CCCCN2C(=O)C(C)(C)C)c2cccc(OCC(=O)O)c2)cc1OC`, the IC50 on F36I mutant FKBP worked out at 947 nM; on F36M mutant FKBP, 2280 nM; at mutant (F36V) FKBP (setting [3]), 390 nM; at F36A mutant FKBP it was 2700 nM; at wild-type human FKBP12, 13500 nM; on F36L mutant FKBP (setting [5]), 426 nM.
Consider `COc1ccc(CC[C@@H](OC(=O)[C@@H]2CCCCN2C(=O)N[C@@H](C)c2ccccc2)c2cccc(OCC(=O)O)c2)cc1OC`, for which the IC50 at F36I mutant FKBP is 1160 nM; on F36M mutant FKBP, 176 nM; at mutant (F36V) FKBP (setting [3]) it was 450 nM; on F36A mutant FKBP it was 94 nM; on wild-type human FKBP12 it was 73500 nM; at F36L mutant FKBP (setting [5]), 670 nM.
With `CC[C@H](C(=O)N1CCC[C@H]1C(=O)O[C@H](CCc1ccc(OC)c(OC)c1)c1cccc(OCC(=O)O)c1)c1cc(OC)c(OC)c(OC)c1`, the IC50 on F36I mutant FKBP is 351 nM; on F36M mutant FKBP, 697 nM; on mutant (F36V) FKBP (setting [3]) it was 265 nM; on F36A mutant FKBP, 665 nM; on wild-type human FKBP12, 61800 nM; at F36L mutant FKBP (setting [5]) it was 359 nM.
On to `CCC(C(=O)N1CCCC[C@H]1C(=O)O[C@H](CCc1ccc(OC)c(OC)c1)c1cccc(OCC(=O)O)c1)N1CCOCC1` (stereo partly drawn), for which the IC50 on F36I mutant FKBP is 4490 nM; on F36M mutant FKBP, 10000 nM; on mutant (F36V) FKBP (setting [3]), 2720 nM; at F36A mutant FKBP it was 8800 nM; on wild-type human FKBP12, above 100000 nM; at F36L mutant FKBP (setting [5]) it was 3790 nM.
On to `CC[C@H](C(=O)N1CCCC[C@H]1C(=O)O[C@H](C)c1cccc(OCC(=O)O)c1)c1ccccc1`, for which the IC50 on F36I mutant FKBP is 7550 nM; on F36M mutant FKBP, 21100 nM; on mutant (F36V) FKBP (setting [3]), 4280 nM; on F36A mutant FKBP it was 4840 nM; at wild-type human FKBP12, above 100000 nM; on F36L mutant FKBP (setting [5]), 7470 nM.

As usually defined, the IC50 is the point on the concentration scale where inhibition reaches its midpoint. In general, EC50 refers to the concentration needed to bring the measured effect to its halfway point.

Source of the values: patent EP0888303B1, “SYNTHETIC DERIVATIVES OF RAPAMYCIN AS MULTIMERIZING AGENTS FOR CHIMERIC PROTEINS WITH IMMUNOPHILIN-DERIVED DOMAINS” (ARIAD Pharmaceuticals, Inc, priority 1996, dated 1997).
